Results: PMC3466118 (Journal of medicinal chemistry, 2011)

How the values were obtained:
HepG2 cells = details: 10 μM; cited from earlier work
[1] = system: cleavage of caspase 3 in HepG2 cells; assay: Western blot, activation/cleavage of caspase 3 in HepG2 cells; type: cell-based, human
[2] = system: acetylation of p53 in HepG2 cells; assay: Western blot, acetylation of p53 in HepG2 cells; type: cell-based, human; details: HepG2 total cell extracts

Compound: O=C(CCCCCCC(=O)Nc1ccccc1)NO [SAHA, suberoylanilide hydroxamic acid, reference compound]
- Lag-phase before apoptotic effect (HepG2 cells): 12 to 16 h
- Time of maximum apoptotic effect (HepG2 cells): about 36 h
- Cleavage of caspase 3 [1]: induced cleavage of caspase 3 by 14 h with maximum activation at 24 h
- Acetylation of p53 [2]: neither SAHA nor 2b induced additional time and dose-dependent hyperacetylation of p53
